Target: lactate dehydrogenase (LDH)
Assay: MST; HD labelled with RED-NHS at 2 uM; label-free LDH titrated, diluted from 71 uM; binding buffer 20 mM HEPES, 150 mM KCl, pH 7.4 (the legend says phosphate buffer); normal conditions; Monolith NT.115, 20% LED, 60% MST power
Conditions: both partners purified

Kd: 180 ± 10 nM
B1: DrHD, hydrophilic domain of DrG3LEA (Deinococcus radiodurans group 3 LEA protein) (domain or fragment, Deinococcus radiodurans R1, UniProt Q9RV58 104-245, looked up)
chain: VADTAKDAGQNVGQNVKREAADLADQAKDKAQDVKADVSKAADQAKDKAQDVAQNVQAGAQQAAANVKDKVQDVKADASKAADQAKDKAQDVAQNVKQGAQQAASDAKDKVQDVKADASRAADQAKDKAQDVAQNVKQSAQD
modifications: labelled with the Monolith NT Protein Labeling Kit RED-NHS
notes: Cloned between BamHI and XhoI of pET28a; also called HD of DrG3LEA

Source: paper PMC6559209, “Functional assessment of hydrophilic domains of late embryogenesis abundant proteins from distant organisms” (Microbial Biotechnology, 2019)
